Test results as given in PubChem BioAssay AID901 (National Center for Advancing Translational Sciences (NCATS), 2007).
This is a selection; strong and weak results do not stand in their true shares. Some results for these compounds are left out of this collection, so the calls shown say nothing about other tests. Results filed as inconclusive are left out. Calls of active or inactive are those of the source. The call rests on the fitted dose curve; in most records, active means well fitted curve in the direction sought with a large enough effect in the signal ratio (not every such curve was filed as active); inconclusive means small, poorly fitted or top-dose-only effect, or a change in a side signal; inactive means no such curve, though single readings can be large or run the other way; the % refers to the signal ratio.

Chains of the proteins cited; added tags and fusions are not shown.
UniProt P97697, whole entry: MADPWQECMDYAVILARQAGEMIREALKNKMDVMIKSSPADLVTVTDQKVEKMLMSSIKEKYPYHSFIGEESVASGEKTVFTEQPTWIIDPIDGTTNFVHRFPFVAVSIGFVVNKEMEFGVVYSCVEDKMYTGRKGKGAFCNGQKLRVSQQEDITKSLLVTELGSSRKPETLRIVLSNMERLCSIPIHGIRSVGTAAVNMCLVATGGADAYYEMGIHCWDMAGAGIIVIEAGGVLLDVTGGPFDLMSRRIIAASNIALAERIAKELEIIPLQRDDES

target: Inositol monophosphatase 1 (Rattus norvegicus) (UniProt P97697); assay: qHTS Assay for Identifying the Cell-Membrane Permeable IMPase Inhibitors; conditions: CHO-M1 cells, HTRF TR-FRET ratio; at 46.1 µM (top of the series);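 further: plate controls were DMSO basal wells for no effect and reference inhibitor wells for full effect; higher means more IMPase inhibition seen as more IP1 and lower FRET ratio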
Excerpt: NCGC IMPase Assay Overview
Lithium has been widely used for the treatment of bipolar disorder. But lithium has a narrow therapeutic index and it can cause side effects such as thirst, weight gain, tremor, polyuria and memory problems. Although the mechanism for lithium action in treatment of bipolar disorder is still not fully understood, inhibition of inositol monophosphatase (IMPase) and the subsequent depletion of the inositol pool in living cells have been implicated as the primary therapeutic benefit of lithium therapy. Therefore, a selective IMPase inhibitor with reduced side effects might be a good drug candidate to replace lithium for the treatment of bipolar disorder. Several IMPase inhibitors have been discovered previously. However, they are not suitable for therapeutic use because of their poor cell membrane penetrability or oral bioavailability; the development of new cell-permeable IMPase inhibitors is needed.
IMPase catalyzes the hydrolysis of inositol-1-phosphate (IP1) to release free inositol. Binding of an agonist to a Gq coupled GPCR results in the activation of PLC, which hydrolyzes the PIP2 to form inositol-1,4,5-trisphosphate (IP3) and diacyl glycerol (DAG). While DAG activates protein kinase C (PKC), IP3 triggers the elevation of intracellular free Ca2+. The IP3 is very rapidly inactivated by hydrolysis to IP2, IP1 and then inositol by a series of enzymes including IMPase. Free inositols are used for synthesis of PI and thus start another inositol cycle.
To identify new cell-permeable IMPase inhibitors, we developed a cell-based IMPase assay in which the cytosolic IP1 is measured by a time-resolved fluorescence resonance energy transfer (TR-FRET) assay. In this assay, an IP1 specific antibody is used to detect the labeled IP1 tracer. When the cell lysate contains the elevated IP1 due to the inhibition of IMPase, the TR-FRET between the labeled antibody and IP1 tracer is disrupted resulting in a reduction in the total signal. Since the TR-FRET is used, this cell-based assay is a homogenous assay without cell wash and medium change that is suitable for assay miniaturization and HTS.
NCGC IMPase Assay Protocol Summary
A Chinese hamster ovary (CHO) cell line stably expressing the M1 receptor (CHO-M1) was obtained from ATCC and maintained in F-12 Kaighn's media (Invitrogen, Carlsbad, CA, 21127) supplemented with 10 % FBS, 100 units/ml penicillin, 100 ug/ml streptomycin and 250 ug/ml geneticin at 37C, 5% CO2 in a humidified atmosphere. Before the assay, aliquots of cells were frozen and stored at -135C. The assay was performed in 1536-well format. […] AC50 values were determined from concentration-response data modeled with the standard Hill equation. […]
(7) Detect the assay plate (Ex = 320, Em1 =665 and Em2 620) in a ViewLux plate reader. […]

Structure (SMILES)	inhibition (IP1 accumulation)
CC(C)N1C(=O)CC2(CCN(CCOC(=O)C(O)(c3ccccc3)c3ccccc3)CC2)C1=O	inactive: 4.91%
CN(C)C1CCCC1OC(=O)C(O)(c1ccccc1)c1ccccc1 (centres undefined)	inactive: 14.7%
CN(C)c1cccc(C(=O)NCC2(N(C)C)CCCCC2)c1	inactive: -0.198%
O=C(OC1CN2CCC1CC2)C(CO)(c1ccccc1)c1ccccc1 (centres undefined)	inactive: 17.5%
